From US8609647B2, “Nitrogen-containing spirocyclic compounds and pharmaceutical uses thereof” (Japan Tobacco Inc., priority 2009, dated 2013)

The chains behind the UniProt entries cited, without tags or fusion partners. Residues count along the entry.
UniProt P52333, 781-1124 limits assumed: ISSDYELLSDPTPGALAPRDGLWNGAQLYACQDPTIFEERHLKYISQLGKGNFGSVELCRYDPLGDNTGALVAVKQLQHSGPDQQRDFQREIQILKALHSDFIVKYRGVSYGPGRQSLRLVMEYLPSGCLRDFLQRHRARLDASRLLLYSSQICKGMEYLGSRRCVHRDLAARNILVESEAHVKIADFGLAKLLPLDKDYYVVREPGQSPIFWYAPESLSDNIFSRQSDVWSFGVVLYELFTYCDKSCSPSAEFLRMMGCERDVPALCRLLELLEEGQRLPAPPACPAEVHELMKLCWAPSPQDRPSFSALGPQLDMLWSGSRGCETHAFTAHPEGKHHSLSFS

target: hJAK3 kinase domain (aa781-end) (Homo sapiens (Human), UniProt P52333); assay: JAK3 activity inhibition, kinase reaction (HTRF, TK substrate-biotin); conditions: JAK3 IC50, 6His tag-fused hJAK3 kinase domain, 10 min at room temperature

SMILES	IC50
COCCC(=O)N1CCCC12CCCN(c1ncnc3[nH]ccc13)C2 (racemic) [Compound 39]	0.12 µM
CC1(C)CCN(C(=O)CC#N)C12CCN(c1ncnc3[nH]ccc13)C2 (racemic) [Compound 41]	0.09 µM
N#CCC(=O)N1CCC(F)(F)C12CCN(c1ncnc3[nH]ccc13)C2 (racemic) [Compound 55]	0.0066 µM
N#CCCNC(=O)N1CCCC12CCCN(c1ncnc3[nH]ccc13)C2 (racemic) [Compound 58]	0.031 µM
N#Cc1cccc(C(=O)N2CCCC23CCN(c2ncnc4[nH]ccc24)C3)c1 (racemic) [Compound 64]	0.18 µM
N#Cc1ccc(C(=O)N2CCCC23CCN(c2ncnc4[nH]ccc24)C3)cc1 (racemic) [Compound 65]	0.19 µM
N#CCC(=O)N1CCCC12CCN(c1c(Cl)cnc3[nH]ncc13)C2 (racemic) [Compound 92]	0.33 µM
CC1CCN(C(=O)CC#N)C12CCN(c1ncnc3[nH]ccc13)C2 (single isomer, unassigned) [Compound 54]	0.0059 µM
CC1CCN(C(=O)CC#N)C12CCN(c1ncnc3[nH]ccc13)C2 (single isomer, unassigned) [Compound 66]	0.011 µM
